The values that follow come from patent US7294630B2, “Piperazinyl piperidine tachykinin antagonists” (SmithKline Beecham Corporation, priority 2000, dated 2007).

Sequences of proteins named here, by UniProt entry; tags and fusion partners are left off.
UniProt P25103, whole entry: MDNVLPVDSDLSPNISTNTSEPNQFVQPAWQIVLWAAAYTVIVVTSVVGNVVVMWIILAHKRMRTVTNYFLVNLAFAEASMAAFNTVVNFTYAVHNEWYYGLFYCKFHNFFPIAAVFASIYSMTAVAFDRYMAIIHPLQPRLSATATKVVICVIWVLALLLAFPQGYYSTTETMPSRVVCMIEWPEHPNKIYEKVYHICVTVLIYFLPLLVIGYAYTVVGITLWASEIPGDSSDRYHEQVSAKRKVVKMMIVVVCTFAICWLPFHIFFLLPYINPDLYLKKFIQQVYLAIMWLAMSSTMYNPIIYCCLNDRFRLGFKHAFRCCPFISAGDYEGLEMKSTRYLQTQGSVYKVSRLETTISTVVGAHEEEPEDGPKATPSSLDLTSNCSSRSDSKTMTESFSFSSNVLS

For the assay, the target named is T1, recombinant human NK1 receptors expressed in Chinese Hamster Ovary (CHO) cell membranes (Homo sapiens, UniProt P25103).
T1 construct: expressed in transfected cells; host or cells: Chinese Hamster Ovary (CHO) cells, membrane preparation
Briefly: NK1-receptor binding affinity, displacement of [3H]-substance P. Conditions: average of at least two determinations, [3H]substance P displacement, read-out: pki (negative logarithm of the inhibition constant Ki) (converted). As for the experimental part:
NK1-receptor binding affinity has been determined in vitro by the compounds' ability to displace [3H]—substance P (SP) from recombinant human NK1 receptors expressed in Chinese Hamster Ovary (CHO) cell membranes.
CHO cell membranes were prepared by using a modification of the method described by Dam T and Quirion R (Peptides, 7:855-864, 1986). Thus ligand binding was performed in 0.4 ml of 50 mM HEPES, pH 7.4, containing 3 mM MnCl2, 0.02% BSA, 0.5 nM [^3H]Substance P (30÷56 Ci/mmol, Amersham), a final membrane concentration of 25 μg of protein/ml, and the test compounds. The incubation proceeded at room temperature for 40 min. Non-specific binding was determined using excess of Substance P (1 μM) and represents about 6% of the total binding.
The affinity of the compound of the invention for NK1 receptor was determined using the NK1-receptor binding affinity method measuring in vitro by the compounds' ability to displace [3H]—substance P (SP) from recombinant human NK1 receptors expressed in Chinese Hamster Ovary (CHO) cell membranes. The affinity values are expressed as negative logarithm of the inhibition constant (Ki) of displacer ligands (pKi).
For orientation: Loss of bound radioactivity is the signal in a displacement assay; it reports binding, not function.

SMILES strings stand for the structures.

A word on the Ki: it is the dissociation constant of the complex between target and ligand, obtained from inhibition or displacement. For `CC(=O)N1CCN([C@H]2CCN(C(=O)N(C)[C@H](C)c3cc(C(F)(F)F)cc(C(F)(F)F)c3)[C@@H](c3ccc(F)cc3C)C2)CC1.Cl` [Example 3, 4-(S)-(4-Acetyl-piperazin-1-yl)-2-(R)-(4-fluoro-2-methyl-phenyl)-piperidine-1-carboxylic acid, [1-(R)-(3,5-bis-trifluoromethyl-phenyl)-ethyl]-methylamide hydrochloride], the inhibitory constant (Ki) is 51.3 pM.
